Data published in patent US9856250B2, “Substituted tropane derivatives” (TOA EIYO LTD., priority 2014, dated 2018).

Amino acid sequences for entries named in this document (tags omitted).
UniProt O95180, whole entry: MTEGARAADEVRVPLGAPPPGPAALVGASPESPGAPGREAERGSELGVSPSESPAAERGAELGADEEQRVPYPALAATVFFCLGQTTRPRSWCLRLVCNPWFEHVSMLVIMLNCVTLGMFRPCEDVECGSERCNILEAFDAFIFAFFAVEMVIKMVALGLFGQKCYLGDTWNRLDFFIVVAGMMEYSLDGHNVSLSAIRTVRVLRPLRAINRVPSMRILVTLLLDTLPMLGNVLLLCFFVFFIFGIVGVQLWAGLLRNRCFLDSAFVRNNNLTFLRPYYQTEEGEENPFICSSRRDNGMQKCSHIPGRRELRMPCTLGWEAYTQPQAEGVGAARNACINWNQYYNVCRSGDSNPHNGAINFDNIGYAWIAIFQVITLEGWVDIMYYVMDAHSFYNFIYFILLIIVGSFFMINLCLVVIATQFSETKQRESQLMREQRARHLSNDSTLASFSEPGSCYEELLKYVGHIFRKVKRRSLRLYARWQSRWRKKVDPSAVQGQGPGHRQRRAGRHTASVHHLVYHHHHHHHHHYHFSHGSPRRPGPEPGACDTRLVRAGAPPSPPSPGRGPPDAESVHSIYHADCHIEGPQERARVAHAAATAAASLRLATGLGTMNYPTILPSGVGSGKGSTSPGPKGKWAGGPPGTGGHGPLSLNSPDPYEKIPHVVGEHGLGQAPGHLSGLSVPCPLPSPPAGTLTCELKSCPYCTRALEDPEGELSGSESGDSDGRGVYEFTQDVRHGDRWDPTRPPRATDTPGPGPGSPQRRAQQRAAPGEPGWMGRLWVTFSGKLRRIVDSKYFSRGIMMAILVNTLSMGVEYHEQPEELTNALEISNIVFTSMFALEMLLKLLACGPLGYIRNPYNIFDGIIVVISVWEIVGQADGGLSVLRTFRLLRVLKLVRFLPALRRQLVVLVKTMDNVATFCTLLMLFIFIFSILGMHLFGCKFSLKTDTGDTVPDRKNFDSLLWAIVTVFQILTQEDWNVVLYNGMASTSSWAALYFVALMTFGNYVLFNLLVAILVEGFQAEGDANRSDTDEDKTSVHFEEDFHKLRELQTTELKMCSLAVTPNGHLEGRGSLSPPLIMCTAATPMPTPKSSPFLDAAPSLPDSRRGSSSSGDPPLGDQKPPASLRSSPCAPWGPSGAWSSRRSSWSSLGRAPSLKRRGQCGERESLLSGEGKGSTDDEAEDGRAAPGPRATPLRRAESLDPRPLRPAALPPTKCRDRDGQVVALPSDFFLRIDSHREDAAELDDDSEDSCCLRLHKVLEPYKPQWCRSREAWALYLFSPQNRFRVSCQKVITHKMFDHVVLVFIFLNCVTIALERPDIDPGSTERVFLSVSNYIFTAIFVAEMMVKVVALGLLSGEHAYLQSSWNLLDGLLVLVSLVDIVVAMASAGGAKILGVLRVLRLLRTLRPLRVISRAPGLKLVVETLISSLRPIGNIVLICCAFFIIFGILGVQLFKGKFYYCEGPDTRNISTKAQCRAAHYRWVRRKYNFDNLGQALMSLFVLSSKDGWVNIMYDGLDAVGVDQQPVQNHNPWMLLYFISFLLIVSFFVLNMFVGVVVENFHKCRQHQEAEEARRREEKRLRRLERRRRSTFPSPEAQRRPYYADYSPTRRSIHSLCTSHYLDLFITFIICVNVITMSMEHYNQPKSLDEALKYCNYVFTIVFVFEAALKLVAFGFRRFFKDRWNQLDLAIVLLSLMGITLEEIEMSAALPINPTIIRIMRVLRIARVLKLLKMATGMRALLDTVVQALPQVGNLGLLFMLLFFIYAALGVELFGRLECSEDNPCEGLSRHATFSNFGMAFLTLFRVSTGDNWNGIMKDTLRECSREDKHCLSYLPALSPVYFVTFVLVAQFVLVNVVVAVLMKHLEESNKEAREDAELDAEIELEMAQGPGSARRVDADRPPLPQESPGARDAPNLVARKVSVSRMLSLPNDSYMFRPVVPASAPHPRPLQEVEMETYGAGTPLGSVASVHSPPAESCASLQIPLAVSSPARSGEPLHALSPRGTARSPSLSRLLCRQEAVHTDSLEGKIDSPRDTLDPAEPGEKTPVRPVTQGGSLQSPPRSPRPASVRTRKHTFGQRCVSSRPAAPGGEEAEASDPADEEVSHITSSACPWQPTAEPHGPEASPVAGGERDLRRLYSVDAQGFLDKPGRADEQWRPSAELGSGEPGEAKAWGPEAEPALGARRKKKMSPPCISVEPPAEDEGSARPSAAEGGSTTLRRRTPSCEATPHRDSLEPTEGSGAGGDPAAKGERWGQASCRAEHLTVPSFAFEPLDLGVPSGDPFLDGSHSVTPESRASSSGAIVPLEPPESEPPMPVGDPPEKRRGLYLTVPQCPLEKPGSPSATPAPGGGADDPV

Target: human T-type calcium channels (human Cav3.2) (Homo sapiens (Human), UniProt O95180)
Experiment: Antagonistic activity against T-type calcium channels (Cav3.2), Fura2 intracellular calcium assay in HEK293 cells
Assay type: cell-based
Settings: HEK293 cells stably expressing human Cav3.2; Fura2 fluorescence ratio after calcium chloride addition

Cn1nc(C(F)(F)F)cc1C(=O)NC[C@@H]1C[C@H]2CC[C@@H](C1)N2CC(=O)NC(C)(C)C
IC50: 49 nM
